{"source": "patent EP1935424A1", "about": "“PHARMACEUTICAL COMPOSITIONS COMPRISING COMBINED ANTIDIABETIC SUBSTANCES FOR USE IN DIABETES MELLITUS” (ESPINOZA ABDALA, Leopoldo de Jesús, priority 2005, dated 2007)", "origin": "cited, not measured here", "details": "oral / gastrointestinal tract, in words", "data": [{"smiles": "CN(C)C(=N)N=C(N)N", "note": "[Metformin]", "values": [{"measurement": "absorption", "result": "slowly and incompletely absorbed"}]}]}
